## Binding of CDR-mutated scFvs to a peptide of the spike HR2 region

Source: Engelhart et al. 2022 (doi:10.1038/s41597-022-01779-4), MIT Lincoln Laboratory and A-Alpha Bio; data file from the FLAb repository.

Binding partner: SARS-CoV-2 spike HR2 peptide, sequence PDVDLGDISGINAS.

Parent scFv Ab-91: VL joined to VH by a (GGGGS)3 linker. Changes lie in the heavy chain CDRs alone.
VL: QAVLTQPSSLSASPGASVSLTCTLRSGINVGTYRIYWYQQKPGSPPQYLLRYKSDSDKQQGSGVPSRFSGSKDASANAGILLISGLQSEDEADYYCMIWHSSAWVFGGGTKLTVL
VH: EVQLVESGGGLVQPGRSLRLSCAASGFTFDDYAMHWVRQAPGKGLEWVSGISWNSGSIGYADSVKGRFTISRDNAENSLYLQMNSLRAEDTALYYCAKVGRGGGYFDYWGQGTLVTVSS

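Phage display of a naive human antibody library on the peptide gave the parent. Variants in AAYL51 differ from the parent at up to three CDR positions; double and triple changes were sampled at random. Affinity was read by AlphaSeq, a pooled yeast mating assay with surface-displayed partners. The frequency of each diploid, read from paired DNA barcodes, reflects how well the two displayed proteins bind. Scores were corrected for input abundance and mapped to Kd with protein pairs of known affinity run in the same pool. Each pool was mated in three replicate cultures.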

Positions count from residue 1 of the parent VH; G26E puts E in place of G. Every variant below is changed at Y108 of the VH (sequential numbering). Kd is apparent (estimated from mating counts) and averaged on the log scale over replicates with a signal. Smaller is tighter. A pair that was not seen in any replicate is written "nd"; this usually means weak binding, but a binder can also be missed. Empty control strains, which show no peptide, gave a signal in 21% of pairings with library AAYL51; the median was 34 µM and 95% of these signals were weaker than 1.8 µM. No background was subtracted.

changes	Kd	replicates with signal
G26E+T28A+Y108C	830 nM	3 of 3
V64R+K65R+Y108T	nd	0 of 3
G50L+Y108S	490 µM	2 of 3
S55P+I58N+Y108H	4.7 µM	3 of 3
A33L+S63N+Y108F	8.1 µM	1 of 3
A61C+G100S+Y108N	72 µM	3 of 3
G26C+I58Y+Y108P	50 nM	3 of 3
D30Y+Y60R+Y108E	10 µM	1 of 3
F27T+G100R+Y108P	17 µM	1 of 3
D30L+G50Q+Y108H	76 µM	1 of 3
F27V+A61K+Y108L	170 µM	3 of 3
G50R+D107Q+Y108M	21 µM	2 of 3
G103E+Y108A	1.4 µM	2 of 3
G100V+D107R+Y108T	nd	0 of 3
Y32A+G56T+Y108H	18 µM	3 of 3
G56S+G103K+Y108S	nd	0 of 3
F29S+Y60L+Y108T	nd	0 of 3
G56W+G100K+Y108A	nd	0 of 3
H35A+G104Q+Y108G	40 µM	2 of 3
I58C+Y60D+Y108D	470 µM	3 of 3
V99G+Y105F+Y108H	410 nM	3 of 3
G26S+G102E+Y108W	nd	0 of 3
D30P+N54P+Y108E	nd	0 of 3
T28N+G104L+Y108C	5.2 µM	1 of 3
I51K+F106E+Y108F	nd	0 of 3
F27Q+G103K+Y108N	2.2 µM	1 of 3
A61Q+V99K+Y108N	nd	0 of 3
F29V+A33V+Y108E	430 µM	1 of 3
M34W+G104P+Y108E	nd	0 of 3
F27C+V99N+Y108G	nd	0 of 3
T28E+N54P+Y108C	nd	0 of 3
D30I+M34C+Y108R	44 µM	1 of 3
F27I+A61N+Y108Q	18 µM	3 of 3
D31F+H35W+Y108H	nd	0 of 3
V64F+F106H+Y108A	nd	0 of 3
T28A+R101P+Y108G	120 nM	3 of 3
D31I+G104N+Y108W	nd	0 of 3
Y60K+S63C+Y108S	nd	0 of 3
G26D+M34T+Y108I	nd	0 of 3
G26V+K65Y+Y108Q	820 µM	1 of 3
W53V+Y105C+Y108H	nd	0 of 3
N54Y+Y108T	nd	0 of 3
S52W+G103L+Y108F	44 µM	1 of 3
S52P+S63T+Y108E	160 µM	3 of 3
S52T+K65E+Y108V	nd	0 of 3
W53S+R101S+Y108C	61 nM	3 of 3
D30P+D31L+Y108N	5.5 nM	3 of 3
T28W+G103S+Y108M	nd	0 of 3
T28N+I51D+Y108G	nd	0 of 3
I58M+G104C+Y108K	76 nM	3 of 3
F27I+N54I+Y108G	nd	0 of 3
Y32P+H35W+Y108T	180 µM	2 of 3
D31C+N54S+Y108A	23 nM	3 of 3
H35Y+W53H+Y108K	1.6 µM	1 of 3
G56T+G102M+Y108L	4.1 µM	2 of 3
D31M+D62L+Y108K	nd	0 of 3
I58Q+G59Q+Y108Q	330 µM	1 of 3
I58D+Y60I+Y108S	4.8 µM	2 of 3
N54D+S57L+Y108N	42 nM	3 of 3
S55R+G59R+Y108G	nd	0 of 3
G56C+A61Y+Y108F	23 µM	3 of 3
G104R+Y105D+Y108F	nd	0 of 3
G26F+N54M+Y108A	24 nM	3 of 3
K65A+G100V+Y108R	630 µM	2 of 3
I51W+D62S+Y108R	nd	0 of 3
F27D+W53N+Y108C	nd	0 of 3
G102T+F106W+Y108R	30 µM	3 of 3
S63H+Y108N	6.1 nM	3 of 3
H35L+G59Q+Y108T	nd	0 of 3
A33I+N54D+Y108A	nd	0 of 3
G59E+V64N+Y108N	nd	0 of 3
N54Q+K65Y+Y108G	10 µM	3 of 3
I58V+V99Y+Y108T	nd	0 of 3

Top 12 of the variants detected in all replicates, tightest first:

changes,Kd,replicates with signal
D30P+D31L+Y108N,5.5 nM,3 of 3
S63H+Y108N,6.1 nM,3 of 3
D31C+N54S+Y108A,23 nM,3 of 3
G26F+N54M+Y108A,24 nM,3 of 3
N54D+S57L+Y108N,42 nM,3 of 3
G26C+I58Y+Y108P,50 nM,3 of 3
W53S+R101S+Y108C,61 nM,3 of 3
I58M+G104C+Y108K,76 nM,3 of 3
T28A+R101P+Y108G,120 nM,3 of 3
V99G+Y105F+Y108H,410 nM,3 of 3
G26E+T28A+Y108C,830 nM,3 of 3
S55P+I58N+Y108H,4.7 µM,3 of 3